Data reported in US5064850A, “Dihydro-3,3-diphenyl-5-(1H-pyrazol-1-ylmethyl-2(3H)-furanone and dihydro-5-((substituted-1H-pyrazol-1-yl)methyl)-3,3-diphenyl-2(3H)-furan one derivatives” (Marion Merrell Dow Inc., priority 1991, dated 1991).

By UniProt entry, the sequences of proteins in these tests, tags left out. Residues count along the entry.
UniProt H0W1Z3, 1-590: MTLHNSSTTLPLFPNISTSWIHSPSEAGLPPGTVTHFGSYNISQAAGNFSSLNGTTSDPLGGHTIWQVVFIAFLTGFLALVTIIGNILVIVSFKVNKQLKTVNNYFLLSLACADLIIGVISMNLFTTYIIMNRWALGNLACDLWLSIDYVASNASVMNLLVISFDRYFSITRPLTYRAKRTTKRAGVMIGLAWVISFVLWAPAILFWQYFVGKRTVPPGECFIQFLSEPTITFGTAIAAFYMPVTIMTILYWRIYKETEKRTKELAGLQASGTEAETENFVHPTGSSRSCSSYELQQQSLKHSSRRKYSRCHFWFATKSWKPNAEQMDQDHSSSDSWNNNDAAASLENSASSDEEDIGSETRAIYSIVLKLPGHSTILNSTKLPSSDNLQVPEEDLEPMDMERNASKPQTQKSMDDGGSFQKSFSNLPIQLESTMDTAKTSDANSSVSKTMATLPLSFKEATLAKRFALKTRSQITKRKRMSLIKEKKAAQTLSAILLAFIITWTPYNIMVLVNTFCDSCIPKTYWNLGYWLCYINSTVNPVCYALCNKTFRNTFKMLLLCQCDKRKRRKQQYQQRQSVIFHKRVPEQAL

Target: T1, postsynaptic muscarinic cholinergic receptors on intestinal (ileal-longitudinal) smooth muscle (Cavia porcellus, UniProt H0W1Z3)
T1 construct: The longitudinal muscle, with the myenteric plexus attached, is separated from the underlying circular muscle; from tissue; host or cells: guinea pig ileum, longitudinal muscle strip with myenteric plexus attached
Test: Antimuscarinic Test Protocol: antagonism of carbachol-induced contraction of ileum strips (Table 1)
Type: cell-based, guinea pig
Conditions: carbachol as agonist, read-out: Anti-muscarinic Activity Kb
Experimental: Antimuscarinic Test Protocol.
Male albino guinea pigs are killed by decapitation or cervical dislocation. The cavity is opened and the small intestine is removed, with about 10 cm of the terminal ileum being discarded. The intestine is placed in a Petri dish that contains Tyrodes solution (137 mM NaCl, 2.78 mM KCl, 1.8 mM CaCl2.2H2 O, 1.1 mM MgCl2.6H2 O, 0.4 mM […], 11.8 mM NaHCO3, 5.6 mM dextrose) and cut into 3-4 cm segments. The segments are preferentially taken from the aboral end of the ileum. Each segment is carefully stretched onto a glass rod 6 mm in diameter and the remaining mesenteric tissue is cut away. The longitudinal muscle, with the myenteric plexus attached, is separated from the underlying circular muscle by gently stroking with a cotton-tipped applicator soaked in Tyrodes solution on a tangent away from the shallow longitudinal incisions made parallel to the mesenteric attachment. […]
Appropriate volumes of carbachol solutions are cumulatively added to the 10 mL tissue baths to increase the concentration of carbachol in the bath step-by-step without washing out after each single dose. […] Antagonism of carbachol responses in the presence of antagonist is determined by repeating the cumulative addition procedure after the tissue has been exposed to the […] for 5 minutes. […]

**Q.** CN1[C@@H]2CC[C@H]1C[C@@H](OC(=O)C(CO)c1ccccc1)C2 (stereo partly shown) [Atropine, reference compound] was tested. Which Kb did it give?
**A.** The Kb was 1.7 nM.
